Test results taken from US10100058B2, “Fused heterocyclic compounds as CaM kinase inhibitors” (Gilead Sciences, Inc., priority 2016, dated 2018).

What follows are molecules tested against recombinant CaMKIIδ (Homo sapiens (Human), UniProt Q13557) (assay: CaMKIIδ biochemical assay (HTRF)). Settings: 10 pM CaMKIIδ, 110 nM calmodulin, 12 μM ATP, 1 hour; read-out: CAMKIID-HTRF-384V2 (IC50 - nM).
Method: CaMKIIδ Biochemical Assay
The biochemical activity of recombinant CaMKIIδ was measured by monitoring the phosphorylation of a target peptide using Homogenous Time Resolved Fluorescence (HTRF) technology from CisBio Bioassays.

Row | IC50 | Structure (SMILES)
1 | 106 nM | N[C@@H]1CCC[C@@H]1NC(=O)c1ccnc(-c2cnn3ccc(-c4ccccc4)nc23)c1 [Example 72, N-((1S,2R)-2-aminocyclopentyl)-2-(5-phenylpyrazolo[1,5-a]pyrimidin-3-yl)isonicotinamide]
2 | 268 nM | O=C(NCC1CCCCN1)c1ccnc(-c2cnn3ccc(-c4ccccc4)nc23)c1 (stereo not drawn) [Example 40, 2-(5-phenylpyrazolo[1,5-a]pyrimidin-3-yl)-N-(piperidin-2-ylmethyl)isonicotinamide]
3 | 547 nM | N[C@@H]1CCC[C@H]1NC(=O)c1ccnc(-c2cnn3ccc(-c4ccccc4)nc23)c1 [Example 71, N-((1R,2R)-2-aminocyclopentyl)-2-(5-phenylpyrazolo[1,5-a]pyrimidin-3-yl)isonicotinamide]
